This is a selection; strong and weak results do not stand in their true shares. The source made the active and inactive calls.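 Rule for the calls: active = primary screen hit whose calcium fluorescence ratio, in both repeats, exceeds the weak agonist control mean by 3 SD; inactive = the rest.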

This assay concerns TRPC4 beta (transient receptor potential cation channel C4), mouse. The assay is described as follows: positive allosteric modulators of mouse TRPC4, confirmation, cell-based, Fluo-4, HEK293 TRPC4beta/mu-opioid (AID 2555). As to conditions: DAMGO EC20, Fluo-4 calcium flux, at 10 µM; active compounds read high. Background: A change in cytosolic calcium serves as a functional read-out for many receptors and channels.
`CCN(CC)CCCOC(=O)C(O)(c1ccccc1)c1ccccc1`: the potentiation was active: 14%.
`CN(C)CCOC(=O)C(O)(c1ccccc1)C1CCCC1` (stereo not drawn): the potentiation result is “inactive”.
Next, `CN(C)C1(CNC(=O)c2ccc(Cl)c(S(N)(=O)=O)c2)CCCCC1`: “inactive”.

Source of the values: PubChem BioAssay AID2555 (Johns Hopkins Ion Channel Center, 2010).
